Measurements reported in PMC6225275 (Molecules : A Journal of Synthetic Chemistry and Natural …, 2018).

Target: tabun (GA)-inhibited human recombinant AChE (HssAChE) (Homo sapiens, UniProt P22303)
Test: Reactivation of tabun (GA)-inhibited HssAChE, Ellman protocol
Conditions: 15 min incubation, pH 7.4, triplicate

SMILES | GA-HssAChE Reactivation (% ± SD) (reactivator 10 μM) | GA-HssAChE Reactivation (% ± SD) (reactivator 100 μM)
CCOC(=O)c1cc[n+](CCCC[n+]2ccc(C=NO)cc2)cc1 [Compound 21, 4-Ethylcarboxy-4′-hydroxyiminomethyl-1,1′-(but-1,4-diyl)-bispyridinium dibromide] | 4.1 ± 0.2% | 1.7 ± 0.5%
ON=Cc1cc[n+](CCCC[n+]2cccc3ccccc32)cc1 [Compound 12, 4-Hydroxyiminomethyl-1,1′-(but-1,4-diyl)-1-pyridinium-1′-quinolinium dibromide] | 3.1 ± 0.3% | 0.6 ± 0.4%
ON=Cc1cc[n+](CCCC[n+]2ccc(Cc3ccccc3)cc2)cc1.[Br-].[Br-] [Compound 17, 4-Hydroxyiminomethyl-4′-phenylmethyl-1,1′-(but-1,4-diyl)-bispyridinium dibromide] | 1.9 ± 0.6% | 0.3 ± 0.2%
ON=Cc1cc[n+](CCCC[n+]2ccccn2)cc1 [Compound 11, 4-Hydroxyiminomethyl-1,1′-(but-1,4-diyl)-1-pyridinium-1′-pyridazinium dibromide] | 4.1 ± 0.2% | 1.5 ± 0.5%
NC(=O)c1cc[n+](CCCC[n+]2ccc(C=NO)cc2)cc1C(N)=O.[Br-].[Br-] [Compound 24, 3,4-Dicarbamoyl-4′-hydroxyiminomethyl-1,1′-(but-1,4-diyl)-bispyridinium dibromide] | 4.5 ± 0.2% | 1.8 ± 0.6%
CC(=O)c1cc[n+](CCCC[n+]2ccc(C=NO)cc2)cc1.[Br-].[Br-] [Compound 19, 4-Hydroxyiminomethyl-4′-methylcarbonyl-1,1′-(but-1,4-diyl)-bispyridinium dibromide] | 3.1 ± 0.1% | 1.7 ± 0.3%
ON=Cc1cc[n+](CCCC[n+]2ccc3ccccc3c2)cc1 [Compound 13, 4-Hydroxyiminomethyl-1,1′-(but-1,4-diyl)-1-pyridinium-1′-isoquinolinium dibromide] | 6.0 ± 0.2% | 3.5 ± 0.7%
